scFv variants of Ab-95 (light chain) against a SARS-CoV-2 spike peptide

Source: Engelhart et al. 2022 (doi:10.1038/s41597-022-01779-4), MIT Lincoln Laboratory and A-Alpha Bio; data file from the FLAb repository.

Binding partner: SARS-CoV-2 spike HR2 peptide, sequence PDVDLGDISGINAS.

Parent: Ab-95, a human scFv built as VH, a (GGGGS)3 linker, VL. Only the CDRs of the light chain vary.
VH: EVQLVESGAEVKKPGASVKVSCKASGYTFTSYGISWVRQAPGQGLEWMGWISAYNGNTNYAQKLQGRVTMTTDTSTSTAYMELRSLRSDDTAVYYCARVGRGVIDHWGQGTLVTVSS
VL: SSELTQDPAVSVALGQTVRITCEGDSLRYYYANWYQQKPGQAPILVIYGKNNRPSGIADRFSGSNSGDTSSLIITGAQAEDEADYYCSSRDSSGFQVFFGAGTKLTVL

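The parent was found by panning a naive human phage display library on the peptide. Library AAYL52 holds single substitutions and randomly drawn double and triple substitutions in the CDRs. In AlphaSeq, yeast of one mating type display the scFv and yeast of the other type display the target. Pairs that bind mate more often; barcode pairs of the diploids are counted by sequencing. Each replicate has its own calibration line, from reference interactions of the BCL2 family. The assay was run in three technical replicates.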

Each variant is given by its three light chain CDRs, as the data file delimits them; those of the parent are EGDSLRYYYAN, GKNNRPS, SSRDSSGFQVF. The read-out is the apparent dissociation constant on a log10 scale (nM): the lower, the stronger. Averages over replicates are reported, and they cover detected replicates only. An entry "nd" has no value in the source: the pair was not observed among the diploids in that replicate. This suggests poor binding but is not conclusive. As a blank, each scFv also met three strains without target: over library AAYL52, 28% of these pairings were detected, typically at 3.91 and seldom below 2.90. Also given: how often the same scFv was detected with the empty control strains.

EGDSLRYYYAN | GKNNCPS | SSTDSQGFQVF: nd, nd, nd (controls 0 of 9).
VGDSLRYYYAN | GKNNRTS | QSRDSSGFQVF: nd, 2.52, nd (controls 2 of 9).
EGDSLDYYYAN | HKNNRPS | SSRDSSYFQVF: 4.53, 4.72, 3.45 (mean 4.23; controls 6 of 9).
EFDSLRYYYAN | GKNNRPS | SSRVSSGSQVF: nd, nd, nd (controls 1 of 9).
EGDNLRYYYAN | GKNNRPS | SSRPSSFFQVF: 2.89, 4.24, 3.74 (mean 3.62; controls 2 of 9).
EGDSLRYYYAN | GKNNVPS | SSRDSSGFQHF: 4.93, nd, nd (controls 0 of 9).
EIPSLRLYYAN | GKNNRPS | SSRDSSGFQVF: 2.68, 3.49, 3.65 (mean 3.27; controls 0 of 9).
EGDSLHYYYAN | GKNNCPS | SFRDSSGFQVF: 4.23, nd, 4.46 (mean 4.35; controls 2 of 9).
EGDSLRYYYAQ | GKNNWPS | SYRDSSGFQVF: 2.94, nd, 3.51 (mean 3.23; controls 2 of 9).
EGCSLRYYYAN | GKNNRPS | SSRDSSPFQVF: nd, 2.90, 3.55 (mean 3.22; controls 2 of 9).
EGDSLRYYYAN | GKNTRHS | SSHDSSGFQVF: 4.28, 2.87, nd (mean 3.58; controls 1 of 9).
EGWSLRYYKAN | GKNNRPS | SSRWSSGFQVF: nd, nd, nd (controls 2 of 9).
EGDSLRYYTAN | GKNNRPQ | SSRDSSGFNVF: 2.73, 2.30, 1.56 (mean 2.19; controls 3 of 9).
EGDSLRYYYIN | GKNNRPS | SRRDSSGFQVS: nd, nd, nd (controls 2 of 9).
EGDSLRYYYAN | GKNNRPS | SSRDASGFQEF: 2.72, 2.28, 1.85 (mean 2.28; controls 1 of 9).
EGDSLRYYYAN | GTNYFPS | SSRDSSGFQVF: nd, nd, nd (controls 1 of 9).
EGDSLRYYYAN | GKNKRPS | SSRDSSGFQWF: 4.48, nd, nd (controls 2 of 9).
EHDSLRYYYAN | GKNNRPS | SSRYSNGFQVF: 2.94, 2.64, 2.27 (mean 2.62; controls 1 of 9).
EGDSLRYYYAN | QKNIRPS | WSRDSSGFQVF: 4.19, 3.09, nd (mean 3.64; controls 3 of 9).
EGDSLRPYYAN | GKNNRPS | SSLDKSGFQVF: nd, nd, 3.76 (controls 0 of 9).
EGDQLRYYEAN | GKNNRPS | SSRDSSGFQVF: 2.16, 1.89, 1.81 (mean 1.95; controls 2 of 9).
EGDSLRQYYAN | GKNNRPS | VSNDSSGFQVF: 3.37, 3.81, 2.67 (mean 3.28; controls 0 of 9).
EGDSLRYHYAN | GKNNRPS | SHRDSSGFQVF: 1.89, 1.75, 1.43 (mean 1.69; controls 5 of 9).
EGDSLRYYYCN | GKNNRPS | SSRDSSSFQTF: 2.78, 2.90, 2.22 (mean 2.63; controls 2 of 9).
EGDSLRGYYAN | GKNNREN | SSRDSSGFQVF: 1.69, 1.89, 1.52 (mean 1.70; controls 1 of 9).
EGDSLRCYYAN | GKNNRPS | SSRDSLEFQVF: 4.21, nd, 3.58 (mean 3.90; controls 2 of 9).
EGDMLRYYYAN | GKNFRPS | SSRDSSGFQVF: 3.72, 2.34, 4.18 (mean 3.41; controls 3 of 9).
EGDSLRYYYAN | GKNYRPS | DSRDSSGFQVF: 3.43, 2.56, 3.16 (mean 3.05; controls 3 of 9).
EGDSLRYYEAN | GKNNDPS | SSRYSSGFQVF: 5.89, nd, 4.31 (mean 5.10; controls 2 of 9).
AGDSTRYYYAN | GKNNRCS | SSRDSSGFQVF: 3.08, 4.99, nd (mean 4.03; controls 2 of 9).